# Measured affinities in a library of Ab-91 heavy chain variants

Data: MIT Lincoln Laboratory AlphaSeq set, Engelhart et al. 2022, doi:10.1038/s41597-022-01779-4, as distributed in FLAb.

The target is the same throughout: PDVDLGDISGINAS, from the HR2 region of SARS-CoV-2 spike.

Parent: Ab-91, a human scFv built as VL, a (GGGGS)3 linker, VH. Only the CDRs of the heavy chain vary.
VL: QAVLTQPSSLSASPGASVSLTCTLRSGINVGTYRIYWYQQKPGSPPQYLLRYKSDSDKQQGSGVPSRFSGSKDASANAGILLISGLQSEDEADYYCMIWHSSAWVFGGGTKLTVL
VH: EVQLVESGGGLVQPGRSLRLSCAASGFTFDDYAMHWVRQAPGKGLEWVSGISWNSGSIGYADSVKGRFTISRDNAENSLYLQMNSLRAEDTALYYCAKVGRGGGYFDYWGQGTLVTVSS

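The parent was found by panning a naive human phage display library on the peptide. Library AAYL51 holds single substitutions and randomly drawn double and triple substitutions in the CDRs. In AlphaSeq, yeast of one mating type display the scFv and yeast of the other type display the target. Mating (16 h, 30 °C) was followed by selection of diploids and sequencing of their barcodes. Each replicate has its own calibration line, from reference interactions of the BCL2 family. There are three technical replicates.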

Each variant's VH is given in full. Each Kd is an estimate from the mating assay, the geometric mean of the replicates in which the pair was seen; lower is stronger. Where no diploid with the target was found in any replicate, the entry reads "nd": below detection, most likely a poor binder, though not proof of it. Three control strains display no target. For library AAYL51, 21% of the pairings with them gave a signal, with a median of 34 µM and one signal in twenty below 1.8 µM, so weak values seen in few replicates may be background. For each scFv, signals with the empty controls are counted beside the result.

Result 3.5 µM (1 of 3 replicates; controls 2 of 9), variant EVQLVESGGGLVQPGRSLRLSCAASGFTFKDYAMHWVRQAPGKGLEWVSAISWNSGSIGYADSVKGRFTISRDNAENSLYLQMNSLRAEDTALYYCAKVGRGPGYFDYWGQGTLVTVSS.
Result 44 µM (3 of 3 replicates; controls 4 of 9), variant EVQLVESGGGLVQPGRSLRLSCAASGFTFDDYGMDWVRQAPGKGLEWVSGISKNSGSIGYADSVKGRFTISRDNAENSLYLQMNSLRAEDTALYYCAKVGRGGGYFDYWGQGTLVTVSS.
Result 760 µM (1 of 3 replicates; controls 3 of 9), variant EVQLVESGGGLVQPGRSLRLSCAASGFTFDDYAMSWVRQAPGKGLEWVSGISWNSGSIGYAISVKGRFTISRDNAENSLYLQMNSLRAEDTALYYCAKVVRGGGYFDYWGQGTLVTVSS.
Result nd (0 of 3 replicates; controls 0 of 9), variant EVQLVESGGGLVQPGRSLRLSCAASGFTFDDYAMHWVRQAPGKGLEWVSGISWVSGSIGYADSVKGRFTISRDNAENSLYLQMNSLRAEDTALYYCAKVGRGLGYMDYWGQGTLVTVSS.
Result nd (0 of 3 replicates; controls 0 of 9), variant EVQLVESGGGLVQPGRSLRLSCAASGPTFDDYAMHWVRQAPGKGLEWVSGISWLSGSIGYADSVKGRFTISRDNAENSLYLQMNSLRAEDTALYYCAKVGRGGGDFDYWGQGTLVTVSS.
Result nd (0 of 3 replicates; controls 1 of 9), variant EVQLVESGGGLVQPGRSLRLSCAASGETFDDPAMHWVRQAPGKGLEWVSGISWNSGSIGYADSVKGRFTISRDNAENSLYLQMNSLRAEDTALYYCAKVGRGGLYFDYWGQGTLVTVSS.
Result nd (0 of 3 replicates; controls 1 of 9), variant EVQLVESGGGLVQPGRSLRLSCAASGFTFDDYAMHWVRQAPGKGLEWVSAISWNSGSIGYADTVKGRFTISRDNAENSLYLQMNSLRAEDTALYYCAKVGRGGGRFDYWGQGTLVTVSS.
Result 13 µM (2 of 3 replicates; controls 1 of 9), variant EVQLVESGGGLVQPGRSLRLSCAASGFTFDDYAMHWVRQAPGKGLEWVSGIEWNSGSIGYADSVNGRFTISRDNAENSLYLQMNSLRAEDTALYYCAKVGREGGYFDYWGQGTLVTVSS.
Result 210 µM (2 of 3 replicates; controls 2 of 9), variant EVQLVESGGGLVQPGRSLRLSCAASGFTFKDYAYHWVRQAPGKGLEWVSGISWNSGSIGYADSSKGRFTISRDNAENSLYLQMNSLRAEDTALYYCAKVGRGGGYFDYWGQGTLVTVSS.
Result 21 µM (2 of 3 replicates; controls 1 of 9), variant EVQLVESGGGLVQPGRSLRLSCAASGFTFDDYASHWVRQAPGKGLEWVSGISWNSGSIGYADSVKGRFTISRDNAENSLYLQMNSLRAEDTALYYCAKVGRGGGYFVAWGQGTLVTVSS.
Result 12 µM (1 of 3 replicates; controls 4 of 9), variant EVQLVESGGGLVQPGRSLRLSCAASGFTFDNYAMHWVRQAPGKGLEWVSGISWNSGLIWYADSVKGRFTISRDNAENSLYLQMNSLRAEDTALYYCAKVGRGGGYFDYWGQGTLVTVSS.
Result nd (0 of 3 replicates; controls 3 of 9), variant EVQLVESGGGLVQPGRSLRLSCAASWFTFDDYAMHWVRQAPGKGLEWVSGISWNSGSIGYSDSVKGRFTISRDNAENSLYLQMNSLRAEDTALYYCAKVGRGGGYFDWWGQGTLVTVSS.
Result 300 µM (2 of 3 replicates; controls 4 of 9), variant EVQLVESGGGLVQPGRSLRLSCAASGFTFDDYAMHWVRQAPGKGLEWVSGISWGSGSIGYAASVKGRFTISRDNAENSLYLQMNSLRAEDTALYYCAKVGRGGGYFPYWGQGTLVTVSS.
Result nd (0 of 3 replicates; controls 1 of 9), variant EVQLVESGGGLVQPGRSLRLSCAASGFTFDDFAMHWVRQAPGKGLEWVSGISSNSGSIGYADSVKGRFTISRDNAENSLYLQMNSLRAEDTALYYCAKVGRGGKYFDYWGQGTLVTVSS.
Result 2.0 µM (1 of 3 replicates; controls 0 of 9), variant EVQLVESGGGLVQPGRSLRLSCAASGFTMDDLAMHWVRQAPGKGLEWVSGISWNSGSLGYADSVKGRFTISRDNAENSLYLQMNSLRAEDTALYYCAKVGRGGGYFDYWGQGTLVTVSS.
Result 250 µM (2 of 3 replicates; controls 5 of 9), variant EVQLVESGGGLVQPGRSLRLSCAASGFTRDDYAMHWVRQAPGKGLEWVSGISWNSNSIPYADSVKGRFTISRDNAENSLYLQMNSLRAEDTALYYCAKVGRGGGYFDYWGQGTLVTVSS.
Result nd (0 of 3 replicates; controls 0 of 9), variant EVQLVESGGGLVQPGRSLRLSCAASGFTFDDYAMHWVRQAPGKGLEWVSGISWQSGRIGFADSVKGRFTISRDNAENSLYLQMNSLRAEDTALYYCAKVGRGGGYFDYWGQGTLVTVSS.
Result 13 µM (3 of 3 replicates; controls 4 of 9), variant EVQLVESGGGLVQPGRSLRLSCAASGFTFDDYAMHWVRQAPGKGLEWVSGISWNSGSIGAADSVKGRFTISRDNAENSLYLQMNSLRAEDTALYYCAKVGRGGRYFIYWGQGTLVTVSS.
Result 720 µM (2 of 3 replicates; controls 1 of 9), variant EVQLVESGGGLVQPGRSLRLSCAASGFTFDDYAMHWVRQAPGKGLEWVSGYSWNSGSIGYADSVKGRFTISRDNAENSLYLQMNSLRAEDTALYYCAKVGRGGGYEDYWGQGTLVTVSS.
Result nd (0 of 3 replicates; controls 1 of 9), variant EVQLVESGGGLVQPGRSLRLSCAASGFTFDDYAMHWVRQAPGKGLEWVSGICWNSGSIGYADSVKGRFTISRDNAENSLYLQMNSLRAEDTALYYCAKVARGGGYFKYWGQGTLVTVSS.

Repeated from above, the 2 best binders with a signal in all replicates:

{"VH": "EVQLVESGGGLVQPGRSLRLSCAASGFTFDDYAMHWVRQAPGKGLEWVSGISWNSGSIGAADSVKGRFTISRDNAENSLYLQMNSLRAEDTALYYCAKVGRGGRYFIYWGQGTLVTVSS", "Kd": "13 µM", "detected": "3 of 3", "empty controls": "4 of 9"}
{"VH": "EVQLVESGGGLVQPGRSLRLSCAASGFTFDDYGMDWVRQAPGKGLEWVSGISKNSGSIGYADSVKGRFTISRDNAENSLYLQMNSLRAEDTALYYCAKVGRGGGYFDYWGQGTLVTVSS", "Kd": "44 µM", "detected": "3 of 3", "empty controls": "4 of 9"}